Molecular target: Poly [ADP-ribose] polymerase 1 (Homo sapiens, UniProt P09874)
Assay: Inhibitory activity against human recombinant PARP-1

Chains of the proteins cited; added tags and fusions are not shown.
UniProt P09874, whole entry: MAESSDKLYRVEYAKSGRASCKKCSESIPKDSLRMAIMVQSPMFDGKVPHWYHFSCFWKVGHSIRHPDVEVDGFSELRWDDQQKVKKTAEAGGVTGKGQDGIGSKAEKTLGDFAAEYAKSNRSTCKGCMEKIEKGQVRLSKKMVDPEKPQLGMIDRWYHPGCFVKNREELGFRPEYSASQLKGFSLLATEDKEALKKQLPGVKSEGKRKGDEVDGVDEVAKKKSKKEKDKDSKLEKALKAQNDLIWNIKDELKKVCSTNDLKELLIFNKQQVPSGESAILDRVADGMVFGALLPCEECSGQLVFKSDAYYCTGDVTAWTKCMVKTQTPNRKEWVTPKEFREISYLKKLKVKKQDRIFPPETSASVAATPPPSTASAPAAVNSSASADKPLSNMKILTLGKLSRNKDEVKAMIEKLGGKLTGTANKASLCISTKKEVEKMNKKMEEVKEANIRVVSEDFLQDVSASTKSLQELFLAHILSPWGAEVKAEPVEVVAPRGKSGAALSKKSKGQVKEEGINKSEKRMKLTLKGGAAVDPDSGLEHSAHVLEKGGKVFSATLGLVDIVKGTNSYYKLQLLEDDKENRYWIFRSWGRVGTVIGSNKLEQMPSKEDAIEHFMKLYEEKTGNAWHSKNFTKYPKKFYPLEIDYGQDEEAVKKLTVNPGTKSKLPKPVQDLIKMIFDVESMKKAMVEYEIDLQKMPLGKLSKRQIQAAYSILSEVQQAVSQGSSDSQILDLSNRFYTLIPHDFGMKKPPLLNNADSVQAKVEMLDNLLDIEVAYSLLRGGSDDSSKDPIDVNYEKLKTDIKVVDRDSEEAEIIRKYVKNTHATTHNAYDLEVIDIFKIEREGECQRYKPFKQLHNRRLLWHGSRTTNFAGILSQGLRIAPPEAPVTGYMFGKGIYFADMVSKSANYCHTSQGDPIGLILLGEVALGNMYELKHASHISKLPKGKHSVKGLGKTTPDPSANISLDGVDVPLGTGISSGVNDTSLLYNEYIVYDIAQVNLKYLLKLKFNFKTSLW

For `O=C(CCn1c2c(c(=O)[nH]c1=O)CCCC2)NCC(=O)c1ccc2ccccc2c1`, the IC50 was 25 nM.

— ChEMBL document CHEMBL1134951, “Substituted uracil derivatives as potent inhibitors of poly(ADP-ribose)polymerase-1 (PARP-1)” (Bioorg Med Chem Lett, 2002)
